Where only a bound is given, the exact number is not on record here.

This note sets out measurements from publication PMC8053108, “RPA2 winged-helix domain facilitates UNG-mediated removal of uracil from ssDNA; implications for repair of mutagenic uracil at the replication fork” (Nucleic Acids Research, 2021).

One experiment deals with UNG-CD. Nature of the experiment: Inhibition of UNG-CD uracil excision by RPA pre-incubated with ssDNA. It is filed as biochemical, human. The conditions noted are these: 0.2 nM UNG-CD; 100 nM U10-25* ssDNA pre-incubated with RPA; data not shown. As to the method:
(§1) Based on this, 10-fold molar excess of RPA over substrate was employed in subsequent experiments unless otherwise stated. DNA substrate (100 nM final) and RPA (1 μM final) were mixed and incubated on ice for 15 min to form RPA/ssDNA complexes. Varying amounts of UNG were then added, and the mixtures incubated for 10 min in a water bath. To avoid unspecific interactions and binding of enzyme and DNA to the assay tube surface, low-DNA binding tubes and excess of BSA was used in all reactions. Reactions were quenched and AP sites cleaved in 10% piperidine at 90°C for 20 min. Samples were dried by vacuum centrifugation and suspended in formamide-containing loading buffer. Product and substrate were separated in 12% PAGE/7M urea–0.5× TBE gels, bands visualised in ChemiDoc™ Imager (Bio-Rad) and quantified by Image Lab software (Bio-Rad). Importantly, all assays in which two parameters were compared (e.g. RPA-coated versus naked substrate or WT versus mutated protein) were performed in parallel with the exact same DNA/protein dilutions.

The next experiment has as its system UNG2. Description: UNG2 uracil excision from ssDNA preincubated with RPA-WT or RPA-ΔWH. It is filed as biochemical, human. Conditions: 100 nM ssDNA, 0-400 nM RPA (WT or ΔWH); three independent experiments. As to the method:
3′-FAM-labelled, PAGE-purified oligonucleotide substrates were from Sigma-Aldrich. Unless otherwise indicated, the substrate (25 nt) harboured uracil at position 10 in a polyC sequence to avoid secondary structures (U10-25*: […]-FAM). Double-stranded substrate was generated by annealing (heating followed by slow cooling) U10-25* to a non-labelled complementary oligo (A16-25: […]). All assays were performed at 22°C in 10 mM Tris–HCl pH 7.5, 50 mM NaCl, 1 mM DTT, 0.1 mM EDTA, 0.5 mg/ml BSA.
as §1, with “Importantly, all assays in which two parameters were compared (e.g. RPA-coated versus naked substrate or WT versus mutated protein) were performed in parallel with the exact same DNA/protein dilutions.” left out

With “RPA: recombinant human trimeric replication protein A”, the “RPA concentration that fully abolished uracil excision” value with UNG-CD is given as more than 400 nM. Besides, the “effect on UNG2 uracil excision from ssDNA” value with UNG2 is listed as “no decrease in uracil excision”.
